Legend:
[1] = test system: HepG2 cells; test: Cell viability assessment (crystal violet), HepG2; type: cell-based, human; details: triterpenoids at 25 and 100 μM; lovastatin 50 μM
[2] = test system: lipolysis-stimulated differentiated 3T3-L1 adipocytes; details: 50 μM, 3 days

For `CC[C@H](C)C(=O)O[C@H]1C[C@@H](C)C=C2C=C[C@H](C)[C@H](CC[C@@H]3C[C@@H](O)CC(=O)O3)[C@H]21` [lovastatin, reference compound], the “cytotoxicity in the HepG2 model (abstract)” value [1] was “cytotoxic” and the “cytotoxic effects on lipolysis-stimulated differentiated adipocytes” value [2] was “had cytotoxic effects”.

— publication PMC11502128 (Journal of Lipids, 2024)
